Literature values in patent US20070224637A1, “Oxidative protection of lipid layer biosensors” (priority 2006, published 2007).

Sodium thiosulfate
Solubility In water: Yes
